Results from ChEMBL document CHEMBL4507280, “Data for DCP probe BI 99179” (2021).

Chains of the proteins cited; added tags and fusions are not shown. Lines headed by an entry give the natural chain unless they say otherwise; changes in a name come on top.
UniProt O75582, whole entry, looked up: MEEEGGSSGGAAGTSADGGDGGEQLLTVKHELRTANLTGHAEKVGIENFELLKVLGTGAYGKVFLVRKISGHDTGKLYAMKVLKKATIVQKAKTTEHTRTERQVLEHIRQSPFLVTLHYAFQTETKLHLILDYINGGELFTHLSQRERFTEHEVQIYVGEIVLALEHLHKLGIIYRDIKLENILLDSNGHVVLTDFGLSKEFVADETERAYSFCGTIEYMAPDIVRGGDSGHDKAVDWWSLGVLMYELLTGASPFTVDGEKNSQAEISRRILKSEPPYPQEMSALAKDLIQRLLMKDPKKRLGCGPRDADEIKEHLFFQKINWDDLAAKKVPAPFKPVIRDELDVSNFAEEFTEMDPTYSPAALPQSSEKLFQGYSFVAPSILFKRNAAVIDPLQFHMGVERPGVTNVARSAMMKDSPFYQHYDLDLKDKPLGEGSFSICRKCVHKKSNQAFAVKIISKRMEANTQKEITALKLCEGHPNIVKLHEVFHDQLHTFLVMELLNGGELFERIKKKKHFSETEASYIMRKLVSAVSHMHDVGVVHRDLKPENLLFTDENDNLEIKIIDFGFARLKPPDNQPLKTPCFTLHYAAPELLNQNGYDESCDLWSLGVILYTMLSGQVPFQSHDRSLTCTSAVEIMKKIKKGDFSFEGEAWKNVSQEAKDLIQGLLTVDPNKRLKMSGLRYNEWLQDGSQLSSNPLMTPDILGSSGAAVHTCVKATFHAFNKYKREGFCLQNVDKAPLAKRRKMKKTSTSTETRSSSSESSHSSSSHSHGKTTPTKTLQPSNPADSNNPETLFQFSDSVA
UniProt P49841: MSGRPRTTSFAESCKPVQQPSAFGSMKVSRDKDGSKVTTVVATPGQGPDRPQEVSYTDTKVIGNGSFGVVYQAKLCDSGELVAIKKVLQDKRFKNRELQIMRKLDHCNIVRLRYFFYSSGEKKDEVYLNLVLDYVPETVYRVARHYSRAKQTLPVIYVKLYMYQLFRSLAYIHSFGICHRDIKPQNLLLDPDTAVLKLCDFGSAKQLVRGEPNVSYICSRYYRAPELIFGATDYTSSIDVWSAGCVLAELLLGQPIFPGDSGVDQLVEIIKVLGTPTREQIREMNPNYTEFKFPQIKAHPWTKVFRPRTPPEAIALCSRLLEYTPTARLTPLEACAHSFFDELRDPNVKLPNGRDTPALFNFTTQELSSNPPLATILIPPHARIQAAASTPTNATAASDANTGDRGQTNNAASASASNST
UniProt Q9Y5S2: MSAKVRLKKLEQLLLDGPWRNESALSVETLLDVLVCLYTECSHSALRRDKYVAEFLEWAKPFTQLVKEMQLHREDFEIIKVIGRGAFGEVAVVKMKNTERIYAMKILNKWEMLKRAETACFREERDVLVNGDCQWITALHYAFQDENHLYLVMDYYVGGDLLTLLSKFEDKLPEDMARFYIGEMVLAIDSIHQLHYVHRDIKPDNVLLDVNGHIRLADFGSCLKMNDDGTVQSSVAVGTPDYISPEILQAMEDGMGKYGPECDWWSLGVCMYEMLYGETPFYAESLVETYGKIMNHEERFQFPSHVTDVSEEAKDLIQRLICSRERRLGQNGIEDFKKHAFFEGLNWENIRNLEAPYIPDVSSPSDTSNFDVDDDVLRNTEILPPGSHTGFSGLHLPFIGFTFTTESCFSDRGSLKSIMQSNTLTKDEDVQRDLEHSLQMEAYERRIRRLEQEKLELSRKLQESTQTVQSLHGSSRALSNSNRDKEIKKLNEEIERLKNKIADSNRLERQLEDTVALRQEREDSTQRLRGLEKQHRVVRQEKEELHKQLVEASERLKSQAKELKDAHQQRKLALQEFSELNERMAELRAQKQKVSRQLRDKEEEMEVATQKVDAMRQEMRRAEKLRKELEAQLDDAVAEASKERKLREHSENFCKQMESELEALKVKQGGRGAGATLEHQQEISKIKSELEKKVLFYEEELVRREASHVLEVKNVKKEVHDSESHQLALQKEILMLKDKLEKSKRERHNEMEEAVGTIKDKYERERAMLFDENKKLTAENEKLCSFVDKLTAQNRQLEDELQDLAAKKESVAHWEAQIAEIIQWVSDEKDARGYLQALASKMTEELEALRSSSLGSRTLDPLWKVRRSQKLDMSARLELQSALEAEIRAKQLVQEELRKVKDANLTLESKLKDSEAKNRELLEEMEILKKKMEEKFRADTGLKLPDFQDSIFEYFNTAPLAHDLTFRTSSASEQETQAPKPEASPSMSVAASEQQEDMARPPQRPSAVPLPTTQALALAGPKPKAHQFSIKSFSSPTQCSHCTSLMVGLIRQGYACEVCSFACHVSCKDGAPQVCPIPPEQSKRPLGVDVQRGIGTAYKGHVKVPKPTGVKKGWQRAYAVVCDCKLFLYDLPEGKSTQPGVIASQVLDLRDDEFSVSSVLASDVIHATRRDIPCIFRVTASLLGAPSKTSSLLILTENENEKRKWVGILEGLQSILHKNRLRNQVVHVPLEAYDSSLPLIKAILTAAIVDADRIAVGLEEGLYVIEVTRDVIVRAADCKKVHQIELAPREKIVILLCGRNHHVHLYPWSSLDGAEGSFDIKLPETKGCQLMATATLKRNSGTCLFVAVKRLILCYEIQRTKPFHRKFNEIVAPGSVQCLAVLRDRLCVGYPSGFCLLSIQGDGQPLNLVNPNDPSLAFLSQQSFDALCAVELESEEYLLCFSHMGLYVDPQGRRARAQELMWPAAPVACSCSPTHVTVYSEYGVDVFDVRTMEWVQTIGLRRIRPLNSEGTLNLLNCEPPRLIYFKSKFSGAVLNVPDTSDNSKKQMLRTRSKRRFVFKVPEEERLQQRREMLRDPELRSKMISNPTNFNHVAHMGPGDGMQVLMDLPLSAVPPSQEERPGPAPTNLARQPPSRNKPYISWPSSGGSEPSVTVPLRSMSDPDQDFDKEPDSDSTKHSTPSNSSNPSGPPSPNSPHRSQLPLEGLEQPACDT

Legend:
[1] = molecular target: T1, Uncharacterized serine/threonine-protein kinase SBK3 (Homo sapiens) (UniProt P0C264); conditions: Compound concentration 1000.0 nM
T1 sequence (whole entry): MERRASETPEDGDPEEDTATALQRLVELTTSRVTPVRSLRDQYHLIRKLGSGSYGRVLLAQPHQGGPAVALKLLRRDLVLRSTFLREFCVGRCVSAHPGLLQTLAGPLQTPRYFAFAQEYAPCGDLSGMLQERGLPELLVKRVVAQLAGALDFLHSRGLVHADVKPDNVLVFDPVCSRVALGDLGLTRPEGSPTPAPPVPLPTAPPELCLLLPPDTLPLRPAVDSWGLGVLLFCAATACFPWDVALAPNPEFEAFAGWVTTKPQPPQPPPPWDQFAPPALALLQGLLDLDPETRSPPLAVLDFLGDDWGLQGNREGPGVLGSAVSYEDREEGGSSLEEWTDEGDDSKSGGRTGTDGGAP

[2] = molecular target: T2, NUAK family SNF1-like kinase 2 (Homo sapiens) (UniProt Q9H093); conditions: Compound concentration 1000.0 nM
T2 sequence (whole entry): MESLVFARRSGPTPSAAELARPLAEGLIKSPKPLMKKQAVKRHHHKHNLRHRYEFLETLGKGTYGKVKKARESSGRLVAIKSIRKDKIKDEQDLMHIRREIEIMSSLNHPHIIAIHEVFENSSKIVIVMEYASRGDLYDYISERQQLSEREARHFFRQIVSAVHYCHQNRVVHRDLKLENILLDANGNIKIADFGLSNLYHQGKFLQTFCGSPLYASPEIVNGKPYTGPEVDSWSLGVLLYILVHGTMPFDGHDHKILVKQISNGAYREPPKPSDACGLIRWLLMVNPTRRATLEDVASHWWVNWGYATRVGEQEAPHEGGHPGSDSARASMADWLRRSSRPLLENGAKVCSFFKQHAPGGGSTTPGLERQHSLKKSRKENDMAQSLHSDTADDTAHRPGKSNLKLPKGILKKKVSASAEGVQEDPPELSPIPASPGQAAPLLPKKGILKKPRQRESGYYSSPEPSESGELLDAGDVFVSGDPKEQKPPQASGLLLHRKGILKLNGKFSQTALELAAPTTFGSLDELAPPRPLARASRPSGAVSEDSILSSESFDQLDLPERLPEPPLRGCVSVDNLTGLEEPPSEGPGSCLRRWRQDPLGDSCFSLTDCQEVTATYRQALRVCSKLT

[3] = test system: Tyrosine-protein kinase ABL1 (Homo sapiens), P00519 [Y253F]; conditions: Compound concentration 1000.0 nM
[4] = molecular target: Ribosomal protein S6 kinase alpha-5 (Homo sapiens) (UniProt O75582); conditions: Compound concentration 1000.0 nM
[5] = molecular target: Tyrosine-protein kinase Fgr (Homo sapiens) (UniProt P09769); conditions: Compound concentration 1000.0 nM
[6] = molecular target: T3, Serine/threonine-protein kinase BRSK1 (Homo sapiens) (UniProt Q8TDC3); conditions: Compound concentration 1000.0 nM
T3 sequence (whole entry): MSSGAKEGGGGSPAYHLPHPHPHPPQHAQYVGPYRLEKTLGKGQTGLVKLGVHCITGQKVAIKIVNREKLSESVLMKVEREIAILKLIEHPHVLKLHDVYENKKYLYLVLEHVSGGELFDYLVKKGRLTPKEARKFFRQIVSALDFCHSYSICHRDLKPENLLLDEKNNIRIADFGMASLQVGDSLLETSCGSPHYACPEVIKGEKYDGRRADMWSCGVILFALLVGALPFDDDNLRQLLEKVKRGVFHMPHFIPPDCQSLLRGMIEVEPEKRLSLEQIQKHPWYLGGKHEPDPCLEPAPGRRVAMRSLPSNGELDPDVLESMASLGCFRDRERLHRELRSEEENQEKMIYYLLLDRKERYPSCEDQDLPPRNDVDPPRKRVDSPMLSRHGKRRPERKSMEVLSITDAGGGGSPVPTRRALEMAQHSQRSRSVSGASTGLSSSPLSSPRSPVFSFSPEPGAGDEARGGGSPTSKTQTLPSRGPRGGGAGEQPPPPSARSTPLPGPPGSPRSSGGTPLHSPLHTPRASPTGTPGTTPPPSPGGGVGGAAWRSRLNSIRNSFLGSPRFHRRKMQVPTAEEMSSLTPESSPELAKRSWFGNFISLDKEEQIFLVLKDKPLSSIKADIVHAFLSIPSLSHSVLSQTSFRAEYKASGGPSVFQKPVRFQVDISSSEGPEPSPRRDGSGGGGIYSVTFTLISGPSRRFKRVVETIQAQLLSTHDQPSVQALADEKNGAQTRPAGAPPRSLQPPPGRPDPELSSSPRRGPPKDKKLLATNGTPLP

[7] = I2/CENTR/R Eurofins-Panlabs selectivity data (BI); conditions: Compound concentration 10.0 uM
[8] = test system: Tyrosine-protein kinase ABL1 (Homo sapiens), P00519 [F317I]; conditions: Compound concentration 1000.0 nM
[9] = molecular target: Dual specificity mitogen-activated protein kinase kinase 2 (Homo sapiens) (UniProt P36507); conditions: Compound concentration 1000.0 nM
[10] = molecular target: Glycogen synthase kinase-3 beta (Homo sapiens) (UniProt P49841); conditions: Compound concentration 1000.0 nM
[11] = molecular target: T4, Activin receptor type-1B (Homo sapiens) (UniProt P36896); conditions: Compound concentration 1000.0 nM
T4 sequence (whole entry): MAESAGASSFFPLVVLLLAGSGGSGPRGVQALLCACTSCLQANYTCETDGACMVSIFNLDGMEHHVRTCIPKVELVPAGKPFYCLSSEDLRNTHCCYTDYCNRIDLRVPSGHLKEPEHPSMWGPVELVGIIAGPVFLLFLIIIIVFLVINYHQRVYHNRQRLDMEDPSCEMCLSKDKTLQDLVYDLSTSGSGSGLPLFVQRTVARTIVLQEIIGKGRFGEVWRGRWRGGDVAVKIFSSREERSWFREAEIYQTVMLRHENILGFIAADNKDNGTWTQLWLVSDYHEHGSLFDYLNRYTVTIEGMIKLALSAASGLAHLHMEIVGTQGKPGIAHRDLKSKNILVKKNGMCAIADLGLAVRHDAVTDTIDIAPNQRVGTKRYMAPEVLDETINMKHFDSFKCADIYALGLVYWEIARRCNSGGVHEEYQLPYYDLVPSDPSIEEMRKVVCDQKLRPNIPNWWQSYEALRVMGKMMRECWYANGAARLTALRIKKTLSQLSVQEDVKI

[12] = molecular target: Serine/threonine-protein kinase MRCK beta (Homo sapiens) (UniProt Q9Y5S2); conditions: Compound concentration 1000.0 nM
[13] = molecular target: T5, Peripheral plasma membrane protein CASK (Homo sapiens) (UniProt O14936); conditions: Compound concentration 1000.0 nM
T5 sequence (whole entry): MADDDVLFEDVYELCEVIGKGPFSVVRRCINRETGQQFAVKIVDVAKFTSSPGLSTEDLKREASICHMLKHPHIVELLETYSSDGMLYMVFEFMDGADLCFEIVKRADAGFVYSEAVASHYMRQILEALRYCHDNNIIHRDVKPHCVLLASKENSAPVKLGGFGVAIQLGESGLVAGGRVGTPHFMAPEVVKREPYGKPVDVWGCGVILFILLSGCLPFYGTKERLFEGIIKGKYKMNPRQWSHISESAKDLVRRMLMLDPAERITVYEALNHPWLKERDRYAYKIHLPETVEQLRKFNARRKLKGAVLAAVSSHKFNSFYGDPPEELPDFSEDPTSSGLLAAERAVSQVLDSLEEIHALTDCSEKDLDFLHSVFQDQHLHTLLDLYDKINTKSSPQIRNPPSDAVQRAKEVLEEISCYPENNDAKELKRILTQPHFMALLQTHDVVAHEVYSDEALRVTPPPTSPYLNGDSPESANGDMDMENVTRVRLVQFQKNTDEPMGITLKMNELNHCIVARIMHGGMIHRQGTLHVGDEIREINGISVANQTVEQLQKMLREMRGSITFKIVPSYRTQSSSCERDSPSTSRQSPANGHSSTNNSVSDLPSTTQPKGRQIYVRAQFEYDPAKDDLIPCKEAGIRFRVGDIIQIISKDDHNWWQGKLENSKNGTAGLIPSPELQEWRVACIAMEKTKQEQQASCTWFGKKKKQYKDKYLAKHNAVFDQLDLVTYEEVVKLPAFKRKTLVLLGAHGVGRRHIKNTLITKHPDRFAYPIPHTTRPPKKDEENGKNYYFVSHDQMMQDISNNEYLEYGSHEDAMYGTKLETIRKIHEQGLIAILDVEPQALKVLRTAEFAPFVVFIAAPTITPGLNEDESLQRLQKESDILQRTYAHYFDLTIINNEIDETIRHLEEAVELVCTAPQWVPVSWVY

[14] = molecular target: T6, Dual specificity mitogen-activated protein kinase kinase 5 (Homo sapiens) (UniProt Q13163); conditions: Compound concentration 1000.0 nM
T6 sequence (whole entry): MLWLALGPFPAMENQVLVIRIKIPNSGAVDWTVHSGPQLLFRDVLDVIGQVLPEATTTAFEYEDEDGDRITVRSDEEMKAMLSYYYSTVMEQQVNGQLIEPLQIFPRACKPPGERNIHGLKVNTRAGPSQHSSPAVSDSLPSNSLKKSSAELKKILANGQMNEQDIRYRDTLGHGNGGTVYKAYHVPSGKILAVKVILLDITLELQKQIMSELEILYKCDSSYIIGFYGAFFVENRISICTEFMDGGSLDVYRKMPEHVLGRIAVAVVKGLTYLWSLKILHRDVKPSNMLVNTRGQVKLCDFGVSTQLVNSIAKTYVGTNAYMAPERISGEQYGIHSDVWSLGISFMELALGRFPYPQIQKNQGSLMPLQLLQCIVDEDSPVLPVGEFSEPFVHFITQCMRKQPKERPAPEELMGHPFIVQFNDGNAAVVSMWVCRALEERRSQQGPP

Measured: residual activity

CCC(=O)N[C@H]1CC[C@@H](C(=O)N(C)c2ccc(-c3nc4ccccc4o3)cc2)C1 [BI 99179]
inactive: [1] 81% | [2] 81% | [3] 81% | [4] 81% | [5] 81% | [6] 81% | [7] 81% | [8] 81% | [9] 81% | [10] 81% | [11] 81% | [12] 81% | [13] 81%

CCC(=O)N[C@@H]1CC[C@H](C(=O)N(C)c2ccc(-c3nc4ccccc4o3)cc2)C1 [BI 99990]
inactive: [14] 81%
